Laboratory results taken from patent US5308869A, “Substituted amidines having high binding to the sigma receptor and the use thereof” (priority 1992, dated 1994).

Test system: sigma receptor
Experiment: Sigma receptor binding assay, [^3 H]DTG, guinea pig brain membrane homogenates
Settings: guinea pig brain membranes; drug specificity profile

Compound: CC1C2Cc3ccc(O)cc3C1(C)CCN2CC1CC1 (single isomer, unassigned; (+)) [(+)cyclazocine]
- Binding to / selectivity at [^3 H]DTG-labelled sigma sites: stereoselectivity for dextrorotatory isomers
